# Rows were chosen to be rich in hits. Some 1.2% of all compounds tested hit in one or more screens of this group.
# UUG fidelity: alters start codon recognition fidelity in yeast. S. cerevisiae UUG-firefly luciferase reporter, luminescence/redox ratio. 350,000 tested, 0.13% active. activity score, % at 18.7 µM. AID 602363;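 active means replicate mean at a twofold rise or more, about +100% in these data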;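 further: firefly luciferase made from a UUG start codon reports start codon fidelity; reporter light over untreated wells divided by growth signal over untreated wells; some hits fall short of that in this replicate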
# Cneo AK release: Cryptococcus neoformans lysis via adenylate kinase release | C. neoformans lysis, adenylate kinase release luminescence, 4 h; normalised: neutral wells 0, clomiphene wells 100 | lysis activity, % at 15 µM | 0.2% of 360,000 active | AID 651654;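 active = mean lysis activity across replicates of at least 80%, whatever share of replicates individually reach that level; inactive = mean lysis activity below 80%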
#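 Material – log-phase Cryptococcus neoformans yeast cells · Input – 5 × 10^6 yeast cells/mL · Medium – fresh YPD growth medium · Doses – single compound concentration per well · Timing – static 4 h at 37 °C with compound, 1 h detection · Detection – adenylate kinase release luminescence · Read-out – signal increase indicating cell lysis · Control set – Clomiphene as positive lysis control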
# N-glyco inh: N-linked glycosylation inhibition; AID 588692; 0.23% of 360,000 active; reporter increase, % at 12.5 µM; D54 ERlucT glycosylation luciferase reporter, 24 h; percent of 100 nM tunicamycin response;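 active = mean luciferase reporter signal, scaled so untreated is 0 and the glycosylation-blocking control 100, at or above a set limit in every replicate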;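 also: luciferase carries N-glycosylation sites so blocking glycosylation raises the light; 0% = median of neutral control wells and 100% = median of 100 nM tunicamycin wells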
# Statin myotox sup: protects C2C12 myotubes from simvastatin toxicity. ATP luminescence, 48 h; scaled: DMSO 0, geranylgeraniol control 100. rescue of ATP level, % at 7.49 µM. 0.78% of 330,000 active. AID 602340;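 active = mean ATP rescue above about 67%, or every replicate alone reaching that limit, limit read from the data, passing the limit was not always enough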;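 also: myotubes were challenged with 10 µM simvastatin during compound exposure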
# miR-122 sensor: blocks miR-122 activity in Huh7 sensor cells. Huh7 miR-122 Renilla luciferase sensor, 48 h; neutral wells = 0, positive control = 100. activation (reporter increase), % at 12.5 µM. AID 602342. 0.3% of 340,000 active;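 active = mean replicate activation score at least 90 and every replicate individually at or above 90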;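 also: higher luciferase means less miR-122 activity so hits act as miR-122 inhibitors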
# Starred values were filed as active, the others as inactive; · = not tested or not shown; [ ] = dose if it differs, or a comment.
nr	structure	UUG fidelity	Cneo AK release	N-glyco inh
1	COc1cc(S(=O)(=O)NC2CCCCC2)ccc1Cl	-33	2	-1
2	COc1ccc(S(=O)(=O)NC2CCCC2)cc1NC(C)=O	-9	3	3
3	C[C@@H]1CN([C@@H](C)CO)C(=O)c2cccc(NC(=O)NC3CCCCC3)c2O[C@H]1CN(C)C(=O)NC1CCCCC1	-1	-3	·
4	CCOc1cccc(C2C(C(=O)c3ccco3)=C(O)C(=O)N2Cc2ccncc2)c1 (stereo not drawn)	-23	-1	-1
5	C[C@H]1CN([C@@H](C)CO)C(=O)c2cccc(NS(C)(=O)=O)c2O[C@@H]1CN(C)Cc1ccc(C(=O)O)cc1	-7	-10	·
6	Cc1ccc(-c2nn(Cc3ccccc3)cc2/C=C/C(=O)O)cc1C	-2	0	1
7	CSC(=NNC(=O)c1ccc(O)cc1)SC	-11	-2	0
8	Cn1c(=O)[nH]c(=O)c2c1nc(N1CCN(Cc3ccccc3)CC1)n2CCCc1ccccc1	-32	0	37*
9	CCCCCn1c(N2CCC(C(N)=O)CC2)nc2c1c(=O)[nH]c(=O)n2C	4	3	2
10	Cn1c(=O)[nH]c(=O)c2c1nc(N(CCO)Cc1ccccc1)n2CCCc1ccccc1	33	-2	41*
11	C/C=C/Cn1c(SCc2ccccc2)nc2c1c(=O)[nH]c(=O)n2C	10	1	0
12	C[C@H](CO)N1C[C@H](C)[C@@H](CN(C)Cc2ccc(Cl)c(Cl)c2)Oc2ccc(NC(=O)Nc3ccccc3)cc2C1=O	2	·	·

nr	Statin myotox sup	miR-122 sensor
1	27	121*
2	-4	·
3	-10	-7[16.7 µM]
4	122*	-4
5	9	3[16.7 µM]
6	86*	0
7	·	3
8	-7	·
9	107*	1
10	5	8
11	116*	2
12	·	1[16.7 µM]

# The results go on.
nr	structure	UUG fidelity	Cneo AK release	N-glyco inh
13	COc1cc(C(=O)Nc2cccc3ncccc23)cc(OC)c1OC	3	-2	3
14	COc1cc(C(=O)Nc2cccc(-c3nc4ccccc4o3)c2C)cc(OC)c1OC	·	·	2
15	COc1ccc(-c2cc(-c3ccc(O)cc3)nc(N)c2C#N)cc1OC	-8	-3	27*
16	O=C(C[C@H]1CC[C@@H](NC(=O)C2CCC2)[C@@H](CO)O1)NCc1ccccc1Cl	-5	-1	·
17	CCOC(=O)C1(C)CCCN1C(=O)c1cccs1 (stereo not drawn)	-5	-3	2
18	N#CC1(NC(=O)CSc2nnc(C3CC3)n2N)CCCCC1	-5	2	2
19	Cc1ccnc(NC(=S)NC(=O)c2cncc(Br)c2)c1	·	·	0
20	Cc1ccccc1C(=O)Nc1ccc(Br)c(C)n1	-4	-5	-2
21	Cc1nc(NC(=S)NC(=O)c2cncc(Br)c2)ccc1Br	-24	1	-2
22	COc1ccc(N(CC(=O)Nc2cc(C)on2)S(=O)(=O)c2cc(C)ccc2C)cc1	2	0	0
23	O=S(=O)(NCc1cccnc1)c1ccc(Cl)c2ccccc12	-19	1	-5
24	O=S(=O)(NCc1cccnc1)c1ccc(Cl)c(Cl)c1Cl	-14	-1	-3

nr	Statin myotox sup	miR-122 sensor
13	92*	0
14	97*	6
15	43	6
16	-3	·
17	-4	4
18	-7	0
19	·	·
20	-10	128*
21	102*	-2
22	26	232*
23	-2	175*
24	-1	19

# (cont.)
nr	structure	UUG fidelity	Cneo AK release	N-glyco inh
25	CCCCCOC(=O)c1[nH]c2c(c1C)C(=O)CC(c1ccco1)C2 (stereo not drawn)	-6	-1	4
26	C[C@@H]1CN([C@H](C)CO)C(=O)c2cc(C#Cc3cccnc3)cnc2O[C@@H]1CN(C)S(=O)(=O)c1ccccc1F	·	5	·
27	CCCNC(=O)Cc1c(O)c2ccccc2[nH]c1=O	·	·	5
28	CC(C)NC(=O)N(C)C[C@H]1Oc2ccc(NS(=O)(=O)c3cn(C)cn3)cc2CC(=O)N([C@H](C)CO)C[C@@H]1C	-1	1	·
29	CC(Nc1nc(-c2ccccc2O)nc2ccccc12)c1ccccc1 (stereo not drawn)	9	0	29*
30	O=C(CN(Cc1ccccc1)S(=O)(=O)c1ccc(F)cc1)NCc1ccccn1	-13	2	2
31	NC(=O)CC(NC(=O)Cc1ccc(Cl)cc1)c1ccc(NC2CCCCC2)c([N+](=O)[O-])c1 (stereo not drawn)	-13	7	45*
32	Cc1cc(C)cc(C(=O)NC(CC(N)=O)c2ccc(NC3CCCCCCCCCCC3)c([N+](=O)[O-])c2)c1 (stereo not drawn)	-9	1	0
33	NC(=O)CC(NC(=O)Cc1ccc(Cl)cc1)c1ccc(NCCc2ccccc2F)c([N+](=O)[O-])c1 (stereo not drawn)	-8	6	0
34	NC(=O)CC(NC(=O)Cc1ccc(Br)cc1)c1ccc(NC2CCC2)c([N+](=O)[O-])c1 (stereo not drawn)	-29	0	39*
35	CC(C)Nc1ccc(C(CC(N)=O)NC(=O)Cc2ccc(Cl)cc2)cc1[N+](=O)[O-] (stereo not drawn)	-8	1	41*
36	NC(=O)CC(NC(=O)Cc1ccc(Cl)cc1)c1ccc(NC2CCCC2)c([N+](=O)[O-])c1 (stereo not drawn)	-11	-1	49*

nr	Statin myotox sup	miR-122 sensor
25	-33	121*
26	1	0[16.7 µM]
27	108*	-3
28	-28	4[16.7 µM]
29	-16	9
30	-2	·
31	-2	-10
32	8	-6
33	-2	0
34	-13	4
35	-27	0
36	-4	-4

# Given as labelled records: three of the compounds above.
26. C[C@@H]1CN([C@H](C)CO)C(=O)c2cc(C#Cc3cccnc3)cnc2O[C@@H]1CN(C)S(=O)(=O)c1ccccc1F
  UUG fidelity = ·	Cneo AK release = 5	N-glyco inh = ·	Statin myotox sup = 1	miR-122 sensor = 0[16.7 µM]

30. O=C(CN(Cc1ccccc1)S(=O)(=O)c1ccc(F)cc1)NCc1ccccn1
  UUG fidelity = -13	Cneo AK release = 2	N-glyco inh = 2	Statin myotox sup = -2	miR-122 sensor = ·

35. CC(C)Nc1ccc(C(CC(N)=O)NC(=O)Cc2ccc(Cl)cc2)cc1[N+](=O)[O-] (stereo not drawn)
  UUG fidelity = -8	Cneo AK release = 1	N-glyco inh = 41*	Statin myotox sup = -27	miR-122 sensor = 0

# Later entries.
nr	structure	UUG fidelity	Cneo AK release	N-glyco inh
37	NC(=O)CC(NC(=O)c1ccccc1)c1ccc(NC2CCCC2)c([N+](=O)[O-])c1 (stereo not drawn)	-9	0	3
38	NC(=O)CC(NC(=O)Cc1cccc2ccccc12)c1ccc(NC2CCC2)c([N+](=O)[O-])c1 (stereo not drawn)	-13	-6	3
39	COc1ccc(C(=O)Nc2ccc3c(c2)OC[C@H](C)NC[C@@H](C)[C@H](OC)CN(C)C3=O)cc1	-9	6	·
40	C[C@H](CO)N1C[C@H](C)[C@H](CN(C)C(=O)Nc2ccccc2)Oc2ncc(-c3cccnc3)cc2C1=O	·	1	·
41	CC(C)Nc1ccc(C(CC(N)=O)NC(=O)c2ccc(Br)cc2)cc1[N+](=O)[O-] (stereo not drawn)	-6	1	49*
42	CC(C)Nc1ccc(C(CC(N)=O)NC(=O)c2ccccc2)cc1[N+](=O)[O-] (stereo not drawn)	-11	-1	-1
43	C[C@@H]1CN([C@H](C)CO)S(=O)(=O)c2ccc(C#CC3CCCC3)cc2O[C@H]1CN(C)C(=O)c1cccc(F)c1	·	·	·
44	O=C(O)CCC(=O)Nc1nnc(C(F)(F)F)s1	-4	-1	-1
45	COC(=O)CCC(=O)Nc1nnc(C(F)(F)F)s1	-25	6	-1
46	CC(=O)N1c2c(cc(Br)cc2S(=O)(=O)N2CCN(c3ccccc3F)CC2)CC1C (stereo not drawn)	3	14	-1
47	CC(C)COc1nc2ccccc2c(=O)n1OCC(=O)O	-8	1	0

nr	Statin myotox sup	miR-122 sensor
37	6	3
38	17	-14
39	-4	17[16.7 µM]
40	1	13[16.7 µM]
41	-8	-8
42	4	-8
43	-76	7[16.7 µM]
44	115*	0
45	7	-6
46	-5	5
47	116*	1

# Screening results deposited in PubChem by Broad Institute.
